Patent US11124523B2, “2,6-dioxaspiro [4,5] decane derivatives and preparation method therefor and pharmaceutical applications thereof” (SHANDONG LUYE PHARMACEUTICAL CO., LTD., priority 2017, dated 2021)
Marks after values point to notes of the source that are not given here.

By UniProt entry, the sequences of proteins in these tests, tags left out.
UniProt P35372, whole entry: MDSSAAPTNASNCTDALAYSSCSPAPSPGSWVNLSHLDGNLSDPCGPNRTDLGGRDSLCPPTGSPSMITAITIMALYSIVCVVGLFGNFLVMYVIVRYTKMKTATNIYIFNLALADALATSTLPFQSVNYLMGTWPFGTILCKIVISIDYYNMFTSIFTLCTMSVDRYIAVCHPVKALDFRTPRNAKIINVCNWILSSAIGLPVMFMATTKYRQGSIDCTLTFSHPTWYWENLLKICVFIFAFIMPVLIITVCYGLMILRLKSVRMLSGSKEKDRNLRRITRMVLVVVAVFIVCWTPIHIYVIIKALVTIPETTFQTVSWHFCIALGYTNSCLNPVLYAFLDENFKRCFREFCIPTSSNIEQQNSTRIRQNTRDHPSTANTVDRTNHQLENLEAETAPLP

Experiments:
[1] = molecular target: T1, human μ-subtype opioid receptor (hMOR) (Homo sapiens (Human), UniProt P35372); test: MOR cAMP agonist activity test; type: cell-based; details: maximum effect of enkephalin DAMGO was 100%
[2] = molecular target: T1, human μ-subtype opioid receptor (hMOR); test: MOR β-arrestin-2 agonist activity test; type: cell-based; details: for MOR β-arrestin-2 Emax: maximum effect of enkephalin DAMGO was 100%, about 0% = no actual agonist activity; for EC50: read-out: MOR β-arrestin-2 EC50, >30000 nM = greater than the highest detection concentration
[3] = Metabolic stability in liver microsomes; type: in vitro ADME; details: human liver microsomes 0.5 mg protein/mL; 45 mg microsome protein/g liver, 20 g liver/kg
Experimental: Test 3: Metabolic Stability in Liver Microsomes
3.1 Experimental Purpose: To test the metabolic stability of the compounds of the present disclosure in human liver microsomes
a. All samples as well as testosterone, diclofenac and propafenone acting as reference substances were dissolved in DMSO to a storage concentration of 10 mM.
b. Intermediate Solution: 5 μL of the substance to be tested or the reference substance was diluted with 45 μL of DMSO (with 450 μL of 1:1 methanol/water).
c. Working Solution: the intermediate solution was diluted with 450 μL of 100 mM potassium phosphate buffer solution (pH 7.4).
Assay Buffer: 100 mM potassium phosphate buffer (pH 7.4) • 10 mM MgCl2
Liver Microsome Solution (final concentration: 0.5 mg protein/mL):
Human liver microsomes, obtained from BD, Cat No. 452117, Lot No. 38291
b. 10 μL of the working solution containing the substance to be tested or the reference substance was added to each of plates (T0, T5, T10, T20, T30, T60, NCF60).
c. The liver microsome solution was dispensed into a 96-well plate in an amount of 680 μL/well, then 80 was added, and then T was added to each of the plates. The above incubation plate was placed at 37° C. and pre-incubated for approximately 10 minutes.
d. 10 μL of 100 mM potassium phosphate buffer was added to each well in the NCF60 plate.
e. […]
T1/2 and Clint(mic) were calculated by the following formula: […]

Question: Which results are given for `Fc1ccc([C@]2(CCN[C@@H]3CCc4ccccc43)CCO[C@]3(CCOC3)C2)nc1` (single isomer, unassigned)?
Answer: MOR cAMP Emax [1]: 11.0%; MOR β-arrestin-2 Emax [2]: about 0%*; EC50 [2]: > 30 µM

Question: With `COc1ccsc1CNCC[C@@]1(c2ccccn2)CCO[C@@]2(CCOC2)C1` as the molecule, how does the “MOR β-arrestin-2 Emax” value ([2]; tested form: HCl) read?
Answer: about 0%*

Question: For `Fc1ccc([C@]2(CCNCc3scc4c3CCCC4)CCO[C@]3(CCOC3)C2)nc1`, which “MOR β-arrestin-2 Emax” value [2] is on record?
Answer: about 0%*

Question: For `COc1ccsc1CNCC[C@@]1(c2ccccn2)CCO[C@]2(CCOC2)C1` (single isomer, unassigned), which “MOR cAMP Emax” value [1] is on record?
Answer: 48.9%

Question: What about the “MOR β-arrestin-2 Emax” value [2] of the same molecule?
Answer: about 0%*

Question: What about the “Intrinsic Clearance CLint(liver) in Human Liver” value [3] of the same molecule?
Answer: 9.3 mL/min/kg

Question: Which “MOR cAMP Emax” value [1] does the source give for `Fc1ccc([C@]2(CCN[C@H]3CCc4ccccc43)CCO[C@]3(CCOC3)C2)nc1` (single isomer, unassigned) here?
Answer: 90.0%

Question: What about the “MOR β-arrestin-2 Emax” value [2] of the same molecule?
Answer: about 0%*

Question: What about the EC50 [2] of the same molecule?
Answer: > 30 µM

Question: And the “Intrinsic Clearance CLint(liver) in Human Liver” value [3]?
Answer: 20.0 mL/min/kg

Question: For `COc1ccsc1CNCC[C@]1(c2ccccn2)CCO[C@@]2(CCOC2)C1`, which “MOR cAMP Emax” value ([1]; tested form: HCl) is on record?
Answer: 39.7%

Question: And the “MOR β-arrestin-2 Emax” value ([2]; tested form: HCl)?
Answer: about 0%*

Question: For `COc1ccsc1CNCC[C@]1(c2ccccn2)CCO[C@]2(CCOC2)C1`, which “MOR cAMP Emax” value ([1]; tested form: HCl) is on record?
Answer: 30.8%

Question: What about the “MOR β-arrestin-2 Emax” value ([2]; tested form: HCl) of the same molecule?
Answer: about 0%*
